38 compounds from patent US9302989B2 (priority 2010, dated 2016) can be followed below.

Protein sequences, listed by entry. Tags and fused reporters are not part of them. Lines headed by an entry give the natural chain unless they say otherwise; changes in a name come on top.
UniProt P43490: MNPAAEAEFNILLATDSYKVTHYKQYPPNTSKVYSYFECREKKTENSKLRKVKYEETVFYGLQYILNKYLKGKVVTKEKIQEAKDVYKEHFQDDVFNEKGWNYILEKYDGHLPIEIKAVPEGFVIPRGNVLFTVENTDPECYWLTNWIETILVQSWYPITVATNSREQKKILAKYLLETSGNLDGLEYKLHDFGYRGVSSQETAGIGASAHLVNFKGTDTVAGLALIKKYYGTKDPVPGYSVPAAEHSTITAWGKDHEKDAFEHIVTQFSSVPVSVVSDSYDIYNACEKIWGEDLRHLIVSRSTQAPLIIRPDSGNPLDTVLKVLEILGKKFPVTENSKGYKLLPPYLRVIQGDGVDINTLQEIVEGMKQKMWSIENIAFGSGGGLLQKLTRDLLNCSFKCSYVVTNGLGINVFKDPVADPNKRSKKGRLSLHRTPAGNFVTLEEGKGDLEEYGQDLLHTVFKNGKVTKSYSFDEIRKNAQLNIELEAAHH

Broadly, the IC50 is the concentration at which inhibition is half-maximal.

The target in this experiment is NAMPT (Homo sapiens (Human), UniProt P43490). Conditions: read-out: TR-FRET Binding IC50 (μM) probe 1. For orientation: In TR-FRET formats the signal depends on donor and acceptor labels being close together.
In the case of `Cc1c(O)cccc1NC(=O)c1ccc(NC(=O)N2Cc3ccccc3C2)cc1` [Example 85, N-{4-[(3-hydroxy-2-methylphenyl)carbamoyl]phenyl}-1,3-dihydro-2H-isoindole-2-carboxamide], the IC50 came to 0.0313 µM.
As for `CC(C)CCNC(=O)c1ccc(NC(=O)N2Cc3ccc(C(F)(F)F)cc3C2)cc1` [Example 86, N-{4-[(3-methylbutyl)carbamoyl]phenyl}-5-(trifluoromethyl)-1,3-dihydro-2H-isoindole-2-carboxamide], the figure is 0.0319 µM; as for `O=C(NCC1CCCC1)c1ccc(NC(=O)N2Cc3ccc(F)cc3C2)cc1` [Example 4], 0.00371 µM.
As for `CCCNC(=O)c1ccc(NC(=O)N2Cc3ccc(C(=O)NCCN(C)C)cc3C2)cc1` [Example 559, N^5-[2-(dimethylamino)ethyl]-N^2-[4-(propylcarbamoyl)phenyl]-1,3-dihydro-2H-isoindole-2,5-dicarboxamide], the IC50 was determined as 1.98 µM.
As for `O=C(Nc1ccc(C(=O)N2CCn3cncc3C2)cc1)N1Cc2ccccc2C1` [Example 162, N-[4-(5,6-dihydroimidazo[1,5-a]pyrazin-7(8H)-ylcarbonyl)phenyl]-1,3-dihydro-2H-isoindole-2-carboxamide], the figure is 0.0882 µM; as for `CNC(=O)c1ccc(NC(=O)N2Cc3ccccc3C2)cc1` [Example 227, N-[4-(methylcarbamoyl)phenyl]-1,3-dihydro-2H-isoindole-2-carboxamide], 0.359 µM.
Next, `O=C(Nc1ccc(C(=O)N2CCN(c3ccccn3)CC2)cc1)N1Cc2cccc(Cl)c2C1` [Example 64, 4-chloro-N-(4-{[4-(pyridin-2-yl)piperazin-1-yl]carbonyl}phenyl)-1,3-dihydro-2H-isoindole-2-carboxamide]: 0.0237 µM.
Next, `O=C(NCCOc1ccccc1)c1ccc(NC(=O)N2Cc3ccccc3C2)cc1` [Example 133, N-{4-[(2-phenoxyethyl)carbamoyl]phenyl}-1,3-dihydro-2H-isoindole-2-carboxamide]: 0.0582 µM; `CC1CCCN(C(=O)c2ccc(NC(=O)N3Cc4ccccc4C3)cc2)C1` (centres unmarked) [Example 249, N-{4-[(3-methylpiperidin-1-yl)carbonyl]phenyl}-1,3-dihydro-2H-isoindole-2-carboxamide]: 0.778 µM.
With `CCCNC(=O)c1ccc(NC(=O)N2Cc3ccc(NS(C)(=O)=O)cc3C2)cc1` [Example 283, 5-[(methylsulfonyl)amino]-N-[4-(propylcarbamoyl)phenyl]-1,3-dihydro-2H-isoindole-2-carboxamide], the IC50 amounted to 0.387 µM.
Next, `O=C(Nc1ccc(N2CCN(C(=O)C3CC3)CC2)cc1)N1Cc2ccccc2C1` [Example 343, N-{4-[4-(cyclopropylcarbonyl)piperazin-1-yl]phenyl}-1,3-dihydro-2H-isoindole-2-carboxamide]: 0.0791 µM.
As for `O=C(NC1CC1)c1ccc(NC(=O)N2Cc3ccccc3C2)cc1` [Example 226, N-[4-(cyclopropylcarbamoyl)phenyl]-1,3-dihydro-2H-isoindole-2-carboxamide], the concentration for half-maximal inhibition (IC50) was determined as 0.339 µM.
As for `O=C(Nc1ccc(N2CCN(C(=O)C3CCCO3)CC2)cc1)N1Cc2ccccc2C1` (centres unmarked) [Example 508, N-{4-[4-(tetrahydrofuran-2-ylcarbonyl)piperazin-1-yl]phenyl}-1,3-dihydro-2H-isoindole-2-carboxamide], the figure is 0.184 µM; as for `O=C(NCC1CCCC1)c1ccc(NC(=O)N2Cc3ccccc3C2)cc1` [Example 39, N-{4-[(cyclopentylmethyl)carbamoyl]phenyl}-1,3-dihydro-2H-isoindole-2-carboxamide], 0.0166 µM.
As for `CCCC(=O)N1Cc2ccc(NC(=O)N3Cc4ccccc4C3)cc2C1` [Example 344, N-(2-butyryl-2,3-dihydro-1H-isoindol-5-yl)-1,3-dihydro-2H-isoindole-2-carboxamide], the figure is 0.216 µM; as for `N#Cc1ccc(NC(=O)N2Cc3ccccc3C2)cc1` [Example 443, N-(4-cyanophenyl)-1,3-dihydro-2H-isoindole-2-carboxamide], 0.365 µM.
Take `O=C(Nc1cnn(Cc2ccccc2)c1)c1ccc(NC(=O)N2Cc3ccccc3C2)cc1` [Example 92, N-{4-[(1-benzyl-1H-pyrazol-4-yl)carbamoyl]phenyl}-1,3-dihydro-2H-isoindole-2-carboxamide]: the 50% inhibitory concentration (IC50) is 0.0346 µM.
As for `Cc1ccc(C(=O)N2CC=C(c3ccc(NC(=O)N4Cc5ccccc5C4)cc3)CC2)cc1` [Example 432, N-{4-[1-(4-methylbenzoyl)-1,2,3,6-tetrahydropyridin-4-yl]phenyl}-1,3-dihydro-2H-isoindole-2-carboxamide], the figure is 0.00874 µM; as for `CN(C)CCCCNC(=O)c1ccc(NC(=O)N2Cc3ccccc3C2)cc1` [Example 204, N-(4-{[4-(dimethylamino)butyl]carbamoyl}phenyl)-1,3-dihydro-2H-isoindole-2-carboxamide], 0.2 µM; as for `COc1cccc(CNC(=O)c2ccc(NC(=O)N3Cc4ccccc4C3)cc2)c1` [Example 71, N-{4-[(3-methoxybenzyl)carbamoyl]phenyl}-1,3-dihydro-2H-isoindole-2-carboxamide], 0.0256 µM.
Turning to `O=C(N[C@H](CO)c1ccccc1)c1ccc(NC(=O)N2Cc3ccccc3C2)cc1` [Example 80, N-(4-{[(1S)-2-hydroxy-1-phenylethyl]carbamoyl}phenyl)-1,3-dihydro-2H-isoindole-2-carboxamide], the IC50 stood at 0.0299 µM.
Regarding `CC(=O)N1CCN(c2ccc(NC(=O)N3Cc4ccccc4C3)cc2)CC1` [Example 536, N-[4-(4-acetylpiperazin-1-yl)phenyl]-1,3-dihydro-2H-isoindole-2-carboxamide], the IC50 was found to be 0.187 µM.
As for `CCCOCCCNC(=O)c1ccc(NC(=O)N2Cc3ccccc3C2)cc1` [Example 82, N-{4-[(3-propoxypropyl)carbamoyl]phenyl}-1,3-dihydro-2H-isoindole-2-carboxamide], the figure is 0.0301 µM.
Take `CN(C)c1cccc(C(=O)N2CC=C(c3ccc(NC(=O)N4Cc5ccccc5C4)cc3)CC2)c1` [Example 477, N-(4-{1-[3-(dimethylamino)benzoyl]-1,2,3,6-tetrahydropyridin-4-yl}phenyl)-1,3-dihydro-2H-isoindole-2-carboxamide]: the IC50 was found to be 0.00996 µM.
As for `O=C(NC[C@H]1CCOC1)c1ccc(NC(=O)N2Cc3ccccc3C2)cc1` [Example 410, N-(4-{[(3R)-tetrahydrofuran-3-ylmethyl]carbamoyl}phenyl)-1,3-dihydro-2H-isoindole-2-carboxamide], the figure is 0.0295 µM; as for `O=C1CC[C@H](C(=O)N2CCN(c3ccc(NC(=O)N4Cc5ccccc5C4)cc3)CC2)N1` [Example 499, N-{4-[4-(5-oxo-D-prolyl)piperazin-1-yl]phenyl}-1,3-dihydro-2H-isoindole-2-carboxamide], 0.806 µM; as for `O=C(Nc1ccc(C(=O)N2CCN(c3ncc(C(F)(F)F)cc3Cl)CC2)cc1)N1Cc2ccccc2C1` [Example 197, N-[4-({4-[3-chloro-5-(trifluoromethyl)pyridin-2-yl]piperazin-1-yl}carbonyl)phenyl]-1,3-dihydro-2H-isoindole-2-carboxamide], 0.178 µM.
As for `O=C(Nc1ccc(C(=O)N2CCc3ccccc32)cc1)N1Cc2ccccc2C1` [Example 187, N-[4-(2,3-dihydro-1H-indol-1-ylcarbonyl)phenyl]-1,3-dihydro-2H-isoindole-2-carboxamide], the figure is 0.146 µM; as for `CCCC(=O)N1CC=C(c2ccc(NC(=O)N3Cc4ccccc4C3)cc2)CC1` [Example 330, N-[4-(1-butyryl-1,2,3,6-tetrahydropyridin-4-yl)phenyl]-1,3-dihydro-2H-isoindole-2-carboxamide], 0.00618 µM; as for `O=C(COCc1ccccc1)Nc1ccc(NC(=O)N2Cc3ccccc3C2)cc1` [Example 295, N-(4-{[(benzyloxy)acetyl]amino}phenyl)-1,3-dihydro-2H-isoindole-2-carboxamide], 0.0141 µM.
As for `O=C(Nc1ccc(C(=O)N2CCN(c3nccc4sccc34)CC2)cc1)N1Cc2ccccc2C1` [Example 12, N-(4-{[4-(thieno[3,2-c]pyridin-4-yl)piperazin-1-yl]carbonyl}phenyl)-1,3-dihydro-2H-isoindole-2-carboxamide], the figure is 0.00656 µM; as for `O=C(NCCc1c[nH]cn1)c1ccc(NC(=O)N2Cc3ccccc3C2)cc1` [Example 171, N-(4-{[2-(1H-imidazol-4-yl)ethyl]carbamoyl}phenyl)-1,3-dihydro-2H-isoindole-2-carboxamide], 0.11 µM; as for `CN(C)CCC(=O)N1CCN(c2ccc(NC(=O)N3Cc4ccccc4C3)cc2)CC1` [Example 535, N-{4-[4-(N,N-dimethyl-beta-alanyl)piperazin-1-yl]phenyl}-1,3-dihydro-2H-isoindole-2-carboxamide], 0.743 µM.
For the compound `O=C(NCc1cccc2c1OCCO2)c1ccc(NC(=O)N2Cc3ccccc3C2)cc1` [Example 16, N-{4-[(2,3-dihydro-1,4-benzodioxin-5-ylmethyl)carbamoyl]phenyl}-1,3-dihydro-2H-isoindole-2-carboxamide], the IC50 is 0.0101 µM.
Next, `CC(C)CCN1Cc2ccc(NC(=O)N3Cc4ccccc4C3)cc2C1` [Example 347, N-[2-(3-methylbutyl)-2,3-dihydro-1H-isoindol-5-yl]-1,3-dihydro-2H-isoindole-2-carboxamide]: 0.297 µM; `CCCN(CCOC)C(=O)c1ccc(NC(=O)N2Cc3ccccc3C2)cc1` [Example 238, N-{4-[(2-methoxyethyl)(propyl)carbamoyl]phenyl}-1,3-dihydro-2H-isoindole-2-carboxamide]: 0.504 µM; `O=C(Nc1ccc(C2=CCN(C(=O)[C@@H]3CCOC3)CC2)cn1)N1Cc2ccccc2C1` [Example 454, N-[1′-((3R)-tetrahydrofuran-3-ylcarbonyl)-1′,2′,3′,6′-tetrahydro-3,4′-bipyridin-6-yl]-1,3-dihydro-2H-isoindole-2-carboxamide]: 0.0803 µM.
Next, `O=C(NCCCc1ccccc1)c1ccc(NC(=O)N2Cc3ccncc3C2)cc1` [Example 288, N-{4-[(3-phenylpropyl)carbamoyl]phenyl}-1,3-dihydro-2H-pyrrolo[3,4-c]pyridine-2-carboxamide]: 0.00447 µM.
